Source: patent US6979572B1, “Compositions and methods for inhibiting inward-rectifier potassium channels” (Trustees of the University of Pennsylvania, priority 1998, dated 2005)
“Also recorded” adds a separate entry of the source.

Sequences of proteins named here, by UniProt entry; tags and fusion partners are left off. A change or cut given only in a name is not applied to a line headed by its entry.
UniProt P35561: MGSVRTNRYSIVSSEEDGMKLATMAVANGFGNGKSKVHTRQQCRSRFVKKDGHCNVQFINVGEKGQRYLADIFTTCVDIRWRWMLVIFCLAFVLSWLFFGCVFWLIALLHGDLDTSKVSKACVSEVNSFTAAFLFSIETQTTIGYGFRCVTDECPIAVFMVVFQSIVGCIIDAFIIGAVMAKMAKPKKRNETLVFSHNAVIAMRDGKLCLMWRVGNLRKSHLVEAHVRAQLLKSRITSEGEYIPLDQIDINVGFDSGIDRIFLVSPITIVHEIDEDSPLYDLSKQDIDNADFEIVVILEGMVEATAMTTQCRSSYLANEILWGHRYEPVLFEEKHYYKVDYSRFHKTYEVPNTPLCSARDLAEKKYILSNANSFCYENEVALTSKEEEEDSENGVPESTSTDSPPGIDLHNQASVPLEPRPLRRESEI

Key:
IRK1 channel = target: T1, IRK1 channel (Mus musculus, UniProt P35561); test: Two-electrode voltage clamp of IRK1 channel in Xenopus oocytes; format: cell-based
T1 construct: expressed in transfected cells; host or cells: Xenopus laevis oocytes (cRNA injection)
Method: (§1) Oocytes harvested from Xenopus laevis frogs were digested with collagenase (2 mg/mL) in a solution containing: NaCl, 82.5 mM; KCl, 2.5 mM; MgCl2, 1.0 mM; HEPES, 5.0 mM (pH 7.6) and were agitated on a platform shaker at a rate of 80 rpm for 90 minutes. The oocytes were then rinsed thoroughly with and stored in a solution containing: gentamicin, 50 μg/mL; NaCl, 96 mM; KCl, 2 mM; CaCl2, 1.8 mM; MgCl, 1 mM; HEPES, 5 mM (pH 7.6). Defolliculated oocytes were selected at least 2 hours after the collagenase digestion. To express channels, the corresponding cRNA was directly injected into oocytes. To express the GIRK1/4 channel, GIRK1 and GIRK4 cRNAs were co-injected with either M2 or M4 receptor cRNA. All injections were carried out at least 16 hours after the collagenase treatment. The injected oocytes were stored in an 18° C. incubator.
All three inward-rectifier K^+ channels, GIRK1/4, ROMK1, and IRK1, were studied using a two-electrode voltage clamp amplifier (Oocyte Clamp OC-725C, Warner Instruments Corp.). The resistance of electrodes filled with 3 M KCl were 0.2–0.4 M Ω. To elicit current through the channel, the membrane potential of oocytes was stepped to −80 mV (100–125 ms) and then to +80 mV (100–125 ms) from the holding potential of 0 mV. […] Tertiapin concentration was calculated using an extinction coefficient 6.1 mM^−1 cm^−1 at 280 nm wavelength. […]

ROMK1 I142L channel = target: T2, ROMK1 I142L channel (Rattus norvegicus, UniProt P35560, I142L); test: Two-electrode voltage clamp of ROMK1 mutant I142L; format: cell-based; details: relative to wild-type ROMK1
T2 construct: expressed in transfected cells; host or cells: Xenopus laevis oocytes (cRNA injection)
T2 sequence (P35560 1-391 I142L): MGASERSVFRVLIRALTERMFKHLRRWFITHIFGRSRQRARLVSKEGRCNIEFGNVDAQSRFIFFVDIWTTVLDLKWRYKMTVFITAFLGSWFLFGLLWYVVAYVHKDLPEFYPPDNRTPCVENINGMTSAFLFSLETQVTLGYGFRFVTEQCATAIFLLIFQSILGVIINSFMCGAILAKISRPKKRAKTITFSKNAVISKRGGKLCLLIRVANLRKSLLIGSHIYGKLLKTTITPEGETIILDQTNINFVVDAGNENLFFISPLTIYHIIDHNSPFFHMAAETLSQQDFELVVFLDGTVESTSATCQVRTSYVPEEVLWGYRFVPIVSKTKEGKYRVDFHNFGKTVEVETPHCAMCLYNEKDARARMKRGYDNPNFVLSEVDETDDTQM
Source text: However, contrary to what has been found for Lq2, a channel mutation, I142L, lowers the affinity of the ROMK1 channel for tertiapin by 8-fold. Residue 142 is located within the signature sequence that forms the K^+-selective part of the pore. The different effects of mutation I142L on the binding of the two toxins may be a consequence of tertiapin contacting the base of the vestibule more intimately than Lq2, which would also explain why tertiapin binds to the channel with a 200-fold higher affinity than Lq2.
as §1, with “To express the GIRK1/4 channel, GIRK1 and GIRK4 cRNAs were co-injected with either M2 or M4 receptor cRNA. All injections were carried out at least 16 hours after the collagenase treatment. The injected oocytes were stored in an 18° C. incubator.” left out
All three inward-rectifier K^+ channels, GIRK1/4, ROMK1, and IRK1, were studied using a two-electrode voltage clamp amplifier (Oocyte Clamp OC-725C, Warner Instruments Corp.). […] Tertiapin concentration was calculated using an extinction coefficient 6.1 mM^−1 cm^−1 at 280 nm wavelength. […]

[1] = Oxidation of residue 13 by air (HPLC); format: physicochemical
Source text: Instability of tertiapin can limit its utility in such screening assays. Methionine residue 13 in tertiapin interacts with residue F148 in the channel located just outside of the narrow region of the ROMK1 pore. […] Accordingly, to overcome the oxidation problem, M13 in tertiapin was replaced with fourteen different non-oxidizable residues. […] This derivative is referred to herein as TPNQ and depicted as SEQ ID NO:2.
Oxidation of M13 altered both the chromatographic behavior and the inhibitory activity of tertiapin. The oxidized form of tertiapin was eluted at a lower percentage of organic phase than the nonoxidized form. […] Therefore, tertiapin samples were examined daily using HPLC both before and after experiments. Only tertiapin samples containing less than 1% oxidized tertiapin, which was determined from the areas of absorbance peaks on HPLC, were used.

Compound: CC[C@H](C)[C@@H]1NC(=O)[C@H](CCCNC(=N)N)NC(=O)[C@H](CC(N)=O)NC(=O)[C@@H]2CSSC[C@@H](C(=O)NCC(=O)N[C@@H](CCCCN)C(=O)N[C@@H](CCCCN)C(N)=O)NC(=O)[C@H](CCCCN)NC(=O)[C@H](CCCCN)NC(=O)[C@H](Cc3c[nH]c4ccccc34)NC(=O)[C@H](CSSC[C@H](NC(=O)[C@H](CC(C)C)NC(=O)[C@H](C)N)C(=O)N[C@@H](CC(N)=O)C(=O)N2)NC(=O)[C@H](CCSC)NC(=O)[C@H](Cc2c[nH]cn2)NC(=O)[C@@H]2CCCN2C(=O)[C@H]([C@@H](C)CC)NC(=O)[C@H]([C@@H](C)CC)NC1=O [tertiapin]
- sensitivity of the IRK1 channel, in words (IRK1 channel): relatively insensitive
- sensitivity of the IRK1 channel (IRK1 channel; at a concentration of 2 μM): insensitive
- lowering of ROMK1 affinity by mutation I142L (ROMK1 I142L channel): 8 fold
- oxidation by air [1]: oxidized by air; also recorded: may become oxidized spontaneously
